From patent publication US20260137799A1, “ANTI-MUC1* ANTIBODY DRUG COMPLEXES AND USES THEREOF” (Minerva Biotechnologies Corporation, priority 2023, published 2026)

Test system: breast cancer, pancreatic cancer, and lung cancer cell lines
Test: Cytotoxicity of ADCs with additional linkers and toxins (FIGS. 30-31)
Format: cell-based
Procedure: FIG. 30 is a table showing cytotoxicity of the indicated MUC1* ADCs against indicated cancer cells. IC50 values were determined from xCELLigence data. FIG. 30 discloses “GGFG” as SEQ ID NO: 160, “GGGG” as SEQ ID NO: 161, “GGVA” as SEQ ID NO: 162, “GGVG” as SEQ ID NO: 163.
FIG. 31 is a table showing cytotoxicity of the indicated MUC1* ADCs against indicated cancer cells. IC50 values were determined from PrestoBlue data.
An anti-MUC1* antibody was conjugated to several toxins via a number of different linkers (compounds VIII-XXII).

Row | Substance | cytotoxic activity against breast cancer, pancreatic cancer, and lung cancer cell lines
1 | C2 MC-GGVA GAB-exatecan [XVI] | cytotoxic activity
2 | C2 MC-VA GAB-exatecan [XV] | cytotoxic activity
